For 3 molecules, mean E FRET % and ΔE % results are on record in publication PMC4394509.

To fix the notation:
B1: CENP-T-EGFP (natural protein)
chain: MADHNPDSDSTPRTLLRRVLDTADPRTPRRPRSARAGARRALLETASPRKLSGQTRTIARGRSHGARSVGRSAHIQASGHLEEQTPRTLLKNILLTAPESSILMPESVVKPVPAPQAVQPSRQESSCGSLELQLPELEPPTTLAPGLLAPGRRKQRLRLSVFQQGVDQGLSLSQEPQGNADAS[about 40 residues not printed]AVDVGAFLRDLRDTSLAPPNIVLEDTQPFSQPMVGSPNVYHSLPCTPHTGAEDAEQAAGRKTQSSGPGLQKNSPGKPAQFLAGEAEEVNAFALGFLSTSSGVSGEDEVEPLHDGVEEAEKKMEEEGVSVSEMEATGAQGPSRVEEAEGHTEVTEAEGSQGTAEADGPGASSGDEDASGRAASPESASSTPESLQARRHHQFLEPAPAPGAAVLSSEPAEPLLVRHPPRPRTTGPRPRQDPHKAGLSHYVKLFSFYAKMPMERKALEMVEKCLDKYFQHLCDDLEVFAAHAGRKTVKPEDLELLMRRQGLVTDQVSLHVLVERHLPLEYRQLLIPCAYSGNSVFPAQ
B2: EGFP-CENP-M, Q9NSP4 1-180 (natural protein)
chain: MSVLRPLDKLPGLNTATILLVGTEDALLQQLADSMLKEDCASELKVHLAKSLPLPSSVNRPRIDLIVFVVNLHSKYSLQNTEESLRHVDASFFLGKVCFLATGAGRESHCSIHRHTVVKLAHTYQSPLLYCDLEVEGFRATMAQRLVRVLQICAGHVPGVSALNLLSLLRSSEGPSLEDL
B3: CENP-M-EGFP, Q9NSP4 1-180 (natural protein)
chain: B2 chain

For this assay, the target named is H3.1-mCherry (human). In words: FRET or BRET; acceptor-bleaching FRET at kinetochores of transfected human cells (HeLa, HEp-2, U2OS), in vivo or in situ; donor EGFP, acceptor mCherry; E_FRET of a bleached region compared with EVAR of an unbleached region. The following applies: remark: other sources report otherwise. Background: In BRET a luciferase serves as donor, and the signal depends on an acceptor being close.
B1 yielded a mean E FRET % of 3.03% and a ΔE % of 4.45%.
Take B2: the mean E FRET % worked out at 3.58% and the ΔE % stood at 4.99%.
B3 returned a mean E FRET % of 2.91% and a ΔE % of 3.15%.
